In patent US20040003424A1, “Transgenic cardiomyocytes with controlled proliferation and differentiation” (Board of Regents, The University of Texas System, priority 2002, published 2004):

Test system: NkL-TAg cells
Experiment: Induction of differentiation of NkL-TAg cells, sarcomeric α-actinin immunocytochemistry
Assay type: cell-based, mouse
Settings: NkL-TAg cells after removal of TAg, in differentiation medium (5% horse serum, insulin, transferrin, selenium)
Protocol: Cell Culture. Cells were isolated from sub-endocardial tumor-like structures in the hearts of transgenic mice as previously described with some modifications (Paradis et al, 1996). Briefly, dissected tissues were minced and dissociated using an enzyme mix containing 0.2% […] (Worthington) and 0.6 mg/ml of pancreatin (Sigma). Cardiac cells derived from Nk-TAg and NkL-TAg mice were maintained in DMEM/F12 media supplemented with 100 IU/ml penicillin, 100 μg/ml streptomycin, 2 mM Lglutamine, and 10% fetal bovine serum (FBS) on plates coated with […] fibronectin and 0.1% 2 gelatin. Cloning cylinders were used to harvest cell clones. Cell growth curves were generated by plating 1.5×10^5 or 2×10^5 cells (as indicated) in growth medium onto 100 mm plates and counting total cell number every 24 hours for 5 days. Differentiation medium contains DMEM/F12 supplemented with 100 IU/ml penicillin, 100 μg/ml streptomycin, 2 mM L-glutamine, 5% heat inactivated horse serum, […], […] and 6.7 ng/ml sodium selenite.
Histochemical Analysis. Heart tissue was fixed in 10% phosphate-buffered formalin and stained with hematoxylin-eosin. […] Coverslips were mounted with Vectashield (Vector Laboratories) and fluorescence or confocal images were captured using Leica DMRXE or Zeiss 3.95 microscopes, respectively. […]

B1: BMP2/4: bone morphogenetic protein (BMP)-2/4 (Genetics Institute) (protein, UniProt P12643 283-396; P12644 293-408, looked up)
Bone morphogenetic protein 2: QAKHKQRKRLKSSCKRHPLYVDFSDVGWNDWIVAPPGYHAFYCHGECPFPLADHLNSTNHAIVQTLVNSVNSKIPKACCVPTELSAISMLYLDENEKVVLKNYQDMVVEGCGCR
Bone morphogenetic protein 4: SPKHHSQRARKKNKNCRRHSLYVDFSDVGWNDWIVAPPGYQAFYCHGDCPFPLADHLNSTNHAIVQTLVNSVNSSIPKACCVPTELSAISMLYLDEYDKVVLKNYQEMVVEGCGCR
induction of sarcomere formation: further induction of sarcomere formation in some cells
